# Laboratory results: article PMC6461108, “A catalytic protein–proteomimetic complex: using aromatic oligoamide foldamers as activators of RNase S” (Chemical Science, 2019)
# Sequences of proteins named here, by UniProt entry; tags and fusion partners are left off. Residues count along the entry.
# UniProt P61823, 48-150 limits assumed: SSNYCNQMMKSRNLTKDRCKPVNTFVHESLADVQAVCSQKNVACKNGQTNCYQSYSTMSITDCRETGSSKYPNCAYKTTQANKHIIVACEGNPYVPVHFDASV
# pIC50: −log10 of the molar value.
# Assays:
# RNase S-protein = RNase S-protein (Bos taurus, UniProt P61823); test: RNA degradation assay (EtBr fluorescence), reactivation of S-protein; type: biochemical, bovine; settings: 100 µM compound, 0.05 µM S-protein, 45 min, 25 °C, Tris pH 6.5
# p53/hDM2 interaction = p53/hDM2 interaction (Homo sapiens, UniProt Q00987); test: Fluorescence anisotropy competition assay against p53/hDM2; settings: read-out: IC50, fluorescence anisotropy competition against p53/hDM2 interaction; FITC-p53 15-31 tracer, 50 mM phosphate pH 7.5, 200 mM NaCl, 0.02 mg/mL BSA
compound,measurement,setting,value
CC(C)Oc1cc(NC(=O)[C@@H](Cc2ccccc2)NC(=O)c2ccc(N)c(OCc3ccc(C(C)(C)C)cc3)c2)ccc1C(=O)NCC(=O)O,% remaining fluorescence (100 µM),RNase S-protein,47%
same,pIC50,p53/hDM2 interaction,5.08
